Target: the molecule itself
Assay: dynamic light scattering; hTH1 4 uM subunit without liposomes, 10 mM Na-Hepes, 150 mM NaCl, pH 7.0, 37 °C; intensity and volume size distributions

B1: Full-length human tyrosine hydroxylase type 1 (enzyme)
chain: not shown
notes: tyrosine hydroxylase type 1 (hTH1), human, UniProt P07101-3; 497 amino acids per subunit, homotetramer; also called hTH1; isoform 1 of human TH; source: E. coli BL21-CodonPlus, expressed as (His)6-ZZ-TH, tag cut with His-tagged TEV, purified (TALON column); not shown: His6, N-terminal, cleaved; ZZ, N-terminal, cleaved
- stoichiometry N: 4
